# Data reported in US11141452B2, “Bifunctional compounds for relief of pain comprising an opioid receptor agonist moiety and a NK1 receptor antagonist moiety and methods for treating pain” (THE ARIZONA BOARD OF REGENTS ON BEHALF OF THE UNIVERSITY OF …, priority 2014, dated 2021).
# Chains of the proteins cited; added tags and fusions are not shown.
# UniProt P30547, whole entry: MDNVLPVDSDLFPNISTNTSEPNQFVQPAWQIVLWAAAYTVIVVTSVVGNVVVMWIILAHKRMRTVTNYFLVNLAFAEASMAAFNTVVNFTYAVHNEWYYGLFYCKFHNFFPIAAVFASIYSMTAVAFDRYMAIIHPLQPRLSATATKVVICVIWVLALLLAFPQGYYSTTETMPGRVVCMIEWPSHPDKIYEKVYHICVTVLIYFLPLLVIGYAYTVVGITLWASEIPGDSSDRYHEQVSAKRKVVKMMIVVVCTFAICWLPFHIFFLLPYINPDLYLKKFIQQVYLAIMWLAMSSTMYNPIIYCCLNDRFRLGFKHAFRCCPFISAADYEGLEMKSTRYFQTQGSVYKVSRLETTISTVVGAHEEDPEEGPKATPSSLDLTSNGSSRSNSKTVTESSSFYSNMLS
# Non-standard residues stand in square brackets, D forms with d. Residues, ends and D or L forms follow the SMILES beside them. *: point of attachment. NH(3,5-(CF3)2-benzyl) = FC(F)(F)c1cc(CN*)cc(C(F)(F)F)c1
# Columns and labels:
# MOR [1] = experiment: Radioligand binding assay at μ opioid receptor
# MOR [2] = experiment: Guinea pig isolated ileum (GPI) functional assay; assay type: cell-based
# NK1R = target: T1, NK1R (Cavia porcellus, UniProt P30547); experiment: GPI/LMMP functional assay at NK1R (agonist and antagonist testing); assay type: cell-based, guinea pig; conditions: agonist activity at the concentration in the cell
# T1 construct: The longitudinal muscle with myenteric plexus (LMMP) was carefully separated from the circular muscle; from tissue; host or cells: guinea pig ileum longitudinal muscle with myenteric plexus
structure (smiles),measurement,setting,value
"CC(C)C[C@H](NC(=O)[C@@H]1CCCN1C(=O)[C@H](Cc1ccc(O)cc1)NC(=O)CNC(=O)[C@H](Cc1ccccc1)NC(=O)[C@@H](C)NC(=O)[C@@H](N)Cc1ccc(O)cc1)C(=O)N[C@@H](Cc1c[nH]c2ccccc12)C(=O)NCc1cc(C(F)(F)F)cc(C(F)(F)F)c1 [AKG114] (H-Y[dA]FGYPLW-{NH(3,5-(CF3)2-benzyl)})",binding selectivity for MOR over DOR,MOR [1],5 times
same,Ki^μ/Ki^δ,MOR [1]; ratio of binding affinities MOR/DOR,1/5
same,GPI/MVD IC50 ratio,MOR [2],4/1
same,GPI/LMMP (NK1R) Agonist,NK1R,None at 300 nM
